This note sets out measurements from US7592188B2, “Live cell biosensors” (The Scripps Research Institute, priority 2004, dated 2009).

The nature of this series: Water solubility and aggregation of dyes in water (absorbance spectra). As to conditions: in words.

“Sodium 3-[(2Z)-{[(9H-Fluoren-9-yloxy)carbonyl]amino}-2-[(2E)-4-(1,3-dimethyl-4,6-dioxo-2-thioxotetrahydropyrimidin-5(2H)-ylidene)-but-2-enylidene]-1,3-benzothiazol-3(2H)-yl]propane-1-sulfonate [dye 1d]”: the water solubility result is listed as “significantly improved”.
